Among the data in US20200289514A1, “Novel Pyrazolo Pyrimidine Derivatives” (Novartis AG, priority 2015, published 2020) are IC50 values, retold here.

The target in this assay is T1, C-domain of MALT1 (amino acids 329-824) (Homo sapiens, UniProt Q9UDY8).
T1 sequence (Q9UDY8 329-824): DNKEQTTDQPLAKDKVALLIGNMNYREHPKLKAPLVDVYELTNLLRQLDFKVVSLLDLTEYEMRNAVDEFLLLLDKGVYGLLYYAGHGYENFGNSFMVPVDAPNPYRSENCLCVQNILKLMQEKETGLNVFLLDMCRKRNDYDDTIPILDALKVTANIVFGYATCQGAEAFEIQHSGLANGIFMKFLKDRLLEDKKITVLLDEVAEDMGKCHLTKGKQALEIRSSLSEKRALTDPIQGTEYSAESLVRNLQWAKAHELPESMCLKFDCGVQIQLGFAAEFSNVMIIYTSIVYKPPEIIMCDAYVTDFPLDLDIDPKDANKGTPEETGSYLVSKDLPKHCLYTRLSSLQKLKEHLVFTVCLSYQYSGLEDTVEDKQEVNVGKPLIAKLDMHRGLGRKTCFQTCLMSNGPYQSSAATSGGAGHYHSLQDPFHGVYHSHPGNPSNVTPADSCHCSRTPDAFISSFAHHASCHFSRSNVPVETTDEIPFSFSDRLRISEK
The experiment in a line: MALT1 Biochemical Assay - Version 1 (fluorescence lifetime).

As a reminder, the IC50 is the point on the concentration scale where inhibition reaches its midpoint. In the case of `CO[C@@H](C)[C@H](OC)c1c(NC(=O)Nc2cnc(-n3nccn3)c(Cl)c2)cnc2cc(Cl)nn12` [Example 10, 1-(5-chloro-6-(2H-1,2,3-triazol-2-yl)pyridin-3-yl)-3-(2-chloro-7-((1R, 2S)-1,2-dimethoxypropyl)pyrazolo[1,5-a]pyrimidin-6-yl) urea], the IC50 amounted to 3 nM.
